# Test results published in article PMC3306125 (Journal of Medicinal Chemistry, 2012).
# Experiments:
# [1] = tested on: acetylated histones H4 and H3; assay: Western blot of histone H4 and H3 acetylation in DU-145 cells; type: cell-based, human; conditions: DU-145, 24 h; SAHA 2.5, 5 μM; DAU 0.1, 0.5 μM; 7 0.5, 1 μM; 12b 2.5, 5 μM
# p21waf1 = assay: Western blot of p21waf1 expression in DU-145 cells; type: cell-based, human; conditions: DU-145, 24 h; SAHA 2.5, 5 μM; DAU 0.1, 0.5 μM; 7 0.5, 1 μM; 12b 2.5, 5 μM
structure (smiles),measurement,setting,value
"O=C(CCCCCCC(=O)Nc1ccccc1)NO [SAHA, suberoylanilide hydroxamic acid, reference compound]",histone H4 acetylation (immunoblot),[1],strong histone H4 acetylation
same,p21waf1 expression (immunoblot),p21waf1,marked upregulation of p21
